From PubChem BioAssay AID1918 (Vanderbilt High Throughput Screening Facility, 2009)
Only a part is listed here, and it is no random draw. Some results for these compounds are left out of this collection, so the calls shown say nothing about other tests. Activity calls are given as the source filed them.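 The calls were made as follows: active = signal ratio slope over the read window, or its plate-corrected B-score, at least 3 SD from the plate mean, either direction; inactive = the rest.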

Sequences of proteins named here, by UniProt entry; tags and fusion partners are left off.
UniProt P48048, whole entry: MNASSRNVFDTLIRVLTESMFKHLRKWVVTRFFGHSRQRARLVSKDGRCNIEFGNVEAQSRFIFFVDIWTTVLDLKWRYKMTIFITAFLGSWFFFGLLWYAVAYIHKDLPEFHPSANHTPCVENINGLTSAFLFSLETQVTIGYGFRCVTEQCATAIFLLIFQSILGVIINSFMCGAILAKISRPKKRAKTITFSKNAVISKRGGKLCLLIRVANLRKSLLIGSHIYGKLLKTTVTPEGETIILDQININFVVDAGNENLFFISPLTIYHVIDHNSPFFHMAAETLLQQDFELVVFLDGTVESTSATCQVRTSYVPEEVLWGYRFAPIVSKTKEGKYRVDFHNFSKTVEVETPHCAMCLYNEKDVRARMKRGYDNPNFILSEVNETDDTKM

Biological target: ATP-sensitive inward rectifier potassium channel 1 (Homo sapiens) (UniProt P48048)
Experiment: ROMK potassium channel modulators, primary screen, cell-based, thallium flux, MLSMR library (AID 1918);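 also: B-score of the F/F0 ratio slope over 7 to 12 s after thallium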
Conditions: Tet-inducible ROMK, thallium flux fluorescence; at 10 µM; actives lie on both sides

SMILES | B-score
C=CCN1CCN(CCOC(=O)C(O)(c2ccccc2)c2ccccc2)CC1 | inactive: 0.262
CCN1CCCC(OC(=O)C2(O)c3ccccc3C=Cc3ccccc32)C1 (stereo not drawn) | inactive: -0.765
Cc1ccccc1C(=O)NCC1(N2CCCCC2)CCCCC1 | inactive: -0.112
CN(C)C1CCCC1OC(=O)C(O)(c1ccccc1)c1ccccc1 (stereo not drawn) | inactive: 0.0128
CCN(CC)CC(C)C(C)OC(=O)C(O)(c1ccccc1)c1ccccc1 (stereo not drawn) | inactive: -0.638
O=C(NCC1(N2CCCCC2)CCCCC1)c1cc([N+](=O)[O-])ccc1Cl | inactive: -0.474
CN(C)c1cccc(C(=O)NCC2(N(C)C)CCCCC2)c1 | inactive: -0.793
COc1cccc(C(=O)NCC2(N3CCCCC3)CCCCC2)c1 | inactive: 0.259
